This series concerns zebrafish eggs. Briefly: Incubation of zebrafish eggs with poly-arginine, bright field microscopy (aggregates, chorion lysis). Format: in vivo. The note with it: after 18 hours incubation. The method, then: 40 zebrafish eggs were transferred into each well of 48-well plates that contained 300 μl of fresh tank system water. After the allocation of eggs, system water in each well was replaced with 300 μl of water that contained 10 or 100 μM of poly-arginine (9-arginine polymer). After 18 hours of incubation the eggs were examined using an Axioplan 2 fluorescence microscope (ZEISS, Thornwood, N.Y., USA). The microscope is equipped with a DP70 digital camera (Olympus, Center Valley, Pa., USA).

With `N=C(N)NCCC[C@H](NC(=O)[C@H](CCCNC(=N)N)NC(=O)[C@H](CCCNC(=N)N)NC(=O)[C@H](CCCNC(=N)N)NC(=O)[C@H](CCCNC(=N)N)NC(=O)[C@H](CCCNC(=N)N)NC(=O)[C@H](CCCNC(=N)N)NC(=O)[C@H](CCCNC(=N)N)NC(=O)[C@@H](N)CCCNC(=N)N)C(=O)O` [poly-arginine/9 mer], the chorion lysis entry was “not seen” (10 μM) and “caused chorion lysis” (100 μM).
